Results: PubChem BioAssay (EPA / NIEHS)
Several values for one entry are separate records, joined by “and”; a condition that tells them apart may be missing. Identical values can stand only once. This is a selection; strong and weak results do not stand in their true shares. Some structures have more than one record in an assay (separate samples or runs), and their calls can disagree. Activity calls are given as the source filed them. How the source made its calls: active means hit-call score of the fitted dose curve at least 0.9, where 1 is the maximum; inactive means score below 0.9.

By UniProt entry, the sequences of proteins in these tests, tags left out. Where a name states a change or a piece, a line headed by the entry shows the natural chain unless it says otherwise.
UniProt Q16665, whole entry, looked up: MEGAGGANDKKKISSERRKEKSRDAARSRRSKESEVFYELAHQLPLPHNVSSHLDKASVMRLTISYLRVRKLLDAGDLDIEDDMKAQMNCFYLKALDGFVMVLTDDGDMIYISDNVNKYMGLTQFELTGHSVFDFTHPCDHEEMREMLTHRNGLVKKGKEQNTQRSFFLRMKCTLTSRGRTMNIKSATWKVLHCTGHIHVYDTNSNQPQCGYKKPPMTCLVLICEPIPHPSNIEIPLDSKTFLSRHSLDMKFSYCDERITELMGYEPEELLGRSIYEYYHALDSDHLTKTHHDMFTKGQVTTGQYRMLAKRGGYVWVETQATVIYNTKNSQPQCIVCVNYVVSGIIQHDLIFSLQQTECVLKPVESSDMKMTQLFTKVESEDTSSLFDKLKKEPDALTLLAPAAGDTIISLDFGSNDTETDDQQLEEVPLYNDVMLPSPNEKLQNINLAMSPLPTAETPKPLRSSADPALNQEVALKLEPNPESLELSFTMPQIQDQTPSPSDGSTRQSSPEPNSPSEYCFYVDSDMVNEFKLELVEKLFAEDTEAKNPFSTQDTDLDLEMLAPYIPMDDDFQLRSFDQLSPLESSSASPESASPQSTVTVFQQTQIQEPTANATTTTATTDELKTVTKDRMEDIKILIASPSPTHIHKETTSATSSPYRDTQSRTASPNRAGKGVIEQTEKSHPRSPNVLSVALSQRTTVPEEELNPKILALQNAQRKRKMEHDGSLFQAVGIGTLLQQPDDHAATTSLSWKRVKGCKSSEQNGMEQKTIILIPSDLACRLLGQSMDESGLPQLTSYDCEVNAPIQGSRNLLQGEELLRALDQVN
UniProt Q9UBC0: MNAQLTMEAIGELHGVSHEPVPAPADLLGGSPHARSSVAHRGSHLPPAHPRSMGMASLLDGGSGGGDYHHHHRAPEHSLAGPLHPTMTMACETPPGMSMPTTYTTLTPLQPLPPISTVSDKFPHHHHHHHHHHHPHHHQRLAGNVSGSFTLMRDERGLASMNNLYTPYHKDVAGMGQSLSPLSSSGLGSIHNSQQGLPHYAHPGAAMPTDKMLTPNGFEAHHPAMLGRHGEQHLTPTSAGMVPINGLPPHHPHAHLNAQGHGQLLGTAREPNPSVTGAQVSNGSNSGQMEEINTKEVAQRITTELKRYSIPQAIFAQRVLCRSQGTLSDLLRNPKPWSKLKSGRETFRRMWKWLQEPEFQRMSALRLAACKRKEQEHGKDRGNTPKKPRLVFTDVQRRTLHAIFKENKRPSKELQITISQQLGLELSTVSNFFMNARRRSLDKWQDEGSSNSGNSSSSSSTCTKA
UniProt Q00613: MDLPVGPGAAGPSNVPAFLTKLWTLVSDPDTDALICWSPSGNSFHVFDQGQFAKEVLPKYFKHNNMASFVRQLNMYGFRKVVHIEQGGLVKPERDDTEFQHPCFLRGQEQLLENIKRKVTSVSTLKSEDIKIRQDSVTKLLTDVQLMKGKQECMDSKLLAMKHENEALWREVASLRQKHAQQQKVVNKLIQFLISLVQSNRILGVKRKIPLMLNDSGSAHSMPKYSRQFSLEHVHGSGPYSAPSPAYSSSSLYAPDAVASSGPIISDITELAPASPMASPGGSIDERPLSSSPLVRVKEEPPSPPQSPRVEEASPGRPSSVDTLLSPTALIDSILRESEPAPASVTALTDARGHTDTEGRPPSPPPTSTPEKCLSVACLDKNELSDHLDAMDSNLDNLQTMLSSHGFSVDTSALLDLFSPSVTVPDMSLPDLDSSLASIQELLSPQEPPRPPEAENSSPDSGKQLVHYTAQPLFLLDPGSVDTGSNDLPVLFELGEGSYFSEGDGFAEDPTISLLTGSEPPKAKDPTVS
UniProt P26367: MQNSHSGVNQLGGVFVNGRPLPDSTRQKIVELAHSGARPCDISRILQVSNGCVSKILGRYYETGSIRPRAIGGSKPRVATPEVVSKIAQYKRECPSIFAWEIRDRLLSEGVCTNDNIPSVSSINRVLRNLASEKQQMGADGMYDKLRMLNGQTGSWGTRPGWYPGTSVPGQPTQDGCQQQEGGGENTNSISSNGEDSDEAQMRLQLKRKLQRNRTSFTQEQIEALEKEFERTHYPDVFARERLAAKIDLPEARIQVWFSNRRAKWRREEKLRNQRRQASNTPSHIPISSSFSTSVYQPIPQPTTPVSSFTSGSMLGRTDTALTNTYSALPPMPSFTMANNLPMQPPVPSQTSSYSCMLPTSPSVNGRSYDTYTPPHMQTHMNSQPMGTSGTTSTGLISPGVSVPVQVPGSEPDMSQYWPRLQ

How the values were obtained:
[1] = ATG_ISRE_CIS: Attagene CIS-FACTORIAL HepG2 Assay for human Interferon Regulatory Factor 1 (IRF1) binding to an Interferon-Stimulated Response Element (ISRE) (AID 2282948); conditions: HepG2 ISRE cis-reporter (Attagene), mRNA transcription readout; actives raise or lower the signal
Procedure, shortened: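 Transfected HepG2 (multiple reporter transcription units, cis elements) dosed 24 h. RNA → oligo(dT) RT → PCR → 6-FAM primer extension → HpaI → CE. DMSO = negative control/baseline.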

[2] = ATG_M_32_CIS: Attagene CIS-FACTORIAL HepG2 Assay for M32 Transcription Factor (Internal Marker) (AID 2282949); conditions: HepG2 Attagene cis-factorial M32 reporter, mRNA; actives raise or lower the signal;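 further: background control marker of the multiplexed CIS panel rather than a real target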
Procedure, shortened: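 Fluorescent capillary electrophoresis peaks of HpaI-digested, FAM-labelled RT-PCR reporter products give the signal. Source: transiently transfected human liver HepG2 cells, 24 h after chemical dosing; bidirectional fitting against DMSO.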

[3] = ATG_M_06_CIS: Attagene CIS-FACTORIAL HepG2 Assay for M06 Transcription Factor (Internal Marker) (AID 2282950); conditions: HepG2 Attagene CIS-FACTORIAL M06 internal marker reporter; actives raise or lower the signal
Procedure, shortened: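 Read-out is fluorescence of labelled reporter cDNA fragments resolved by capillary electrophoresis after RT-PCR. Cells: HepG2 carrying transfected cis-promoter reporter units, treated 24 h. Gain or loss of signal fitted relative to DMSO.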

[4] = target: Hypoxia-inducible factor 1-alpha (Homo sapiens) (UniProt Q16665); assay: ATG_HIF1a_CIS: Attagene CIS-FACTORIAL HepG2 Assay for human Hypoxia Inducible Factor 1 (HIF1A) (AID 2282951); conditions: HepG2 Attagene cis-factorial HIF1a reporter transcription; actives raise or lower the signal
Procedure, shortened: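 Measures endogenous transcription-factor activity through cis-regulated reporter mRNA in HepG2. Cells dosed 24 h; transcripts quantified by RT-PCR with 6-FAM-labelled products separated by capillary electrophoresis; DMSO serves as negative control.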

[5] = target: Hepatocyte nuclear factor 6 (Homo sapiens) (UniProt Q9UBC0); assay: ATG_HNF6_CIS: Attagene CIS-FACTORIAL HepG2 Assay for human Hepatocyte Nuclear Factor 6 (HNF6) (AID 2282952); conditions: HepG2 Attagene cis-factorial HNF6 reporter transcription; actives raise or lower the signal
Procedure, shortened: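 Multiplexed mRNA reporter assay in transfected HepG2; 24 h dosing; RT-PCR plus capillary electrophoresis fluorescence; DMSO-referenced bidirectional curve fitting.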

[6] = target: Heat shock factor protein 1 (Homo sapiens) (UniProt Q00613); assay: ATG_HSE_CIS: Attagene CIS-FACTORIAL HepG2 Assay for human Heat Shock Transcription Factor 1 (HSE) (AID 2282953); conditions: HepG2 HSE cis-reporter, Attagene RNA transcription; actives raise or lower the signal
Procedure, shortened: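 HepG2, transient MRTU transfection, cis-promoter reporters (endogenous TF activity). 24 h compound. RNA → oligo(dT) RT → PCR → 6-FAM primer extension → HpaI cut → CE. Bidirectional fit vs DMSO.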

[7] = ATG_MRE_CIS: Attagene CIS-FACTORIAL HepG2 Assay for human Metal Responsive Element (MRE) (AID 2282954); conditions: HepG2 MRE cis-reporter transcription, Attagene multiplex; actives raise or lower the signal
Procedure, shortened: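 HepG2 cells transiently transfected with cis-element-driven reporter units; mRNA measured 24 h after dosing. Reporter transcripts quantified by RT-PCR, FAM labelling, HpaI digestion and capillary electrophoresis; bidirectional fit versus DMSO.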

[8] = target: Paired box protein Pax-6 (Homo sapiens) (UniProt P26367); assay: ATG_Pax6_CIS: Attagene CIS-FACTORIAL HepG2 Assay for human Paired Box 6 (PAX6) (AID 2282956); conditions: HepG2 CIS-FACTORIAL PAX6 reporter transcription, RNA readout; actives raise or lower the signal
Procedure, shortened: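 Transient MRTU transfection of HepG2 → compound exposure 24 h → TriZol RNA, oligo(dT) RT → PCR, 6-FAM primer extension, HpaI cut → capillary electrophoresis; activity fitted both directions against DMSO.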

[9] = ATG_PXRE_CIS: Attagene CIS-FACTORIAL HepG2 Assay for human Pregnane X Receptor Element (PXRE) (AID 2282957); conditions: HepG2 Attagene CIS-FACTORIAL PXRE reporter, mRNA; actives raise or lower the signal
Procedure, shortened: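 Cells: HepG2, transiently transfected reporter units under cis promoter control. Exposure: 24 h. Detection: reporter mRNA via RT-PCR/CE fluorescence; bidirectional fitting, DMSO-referenced.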

[10] = ATG_PBREM_CIS: Attagene CIS-FACTORIAL HepG2 Assay for human Phenobarbital-responsive Enhancer Module (PBREM) (AID 2282955); conditions: HepG2 PBREM cis-reporter, Attagene multiplexed transcription; actives raise or lower the signal
Procedure, shortened: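 Fluorescence of labelled reporter cDNA fragments, resolved by capillary electrophoresis, gives mRNA induction in transfected HepG2 cells treated for 24 h; DMSO serves as negative control and baseline.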

Measured: AC50

O=C(Cl)OCCOC(=O)Cl
inactive: [1] | [2] | [3] | [4] | [5] | [6] | [7] | [8] | [9]

O=[p+]1oc2ccccc2c2ccccc21 (centres undefined)
inactive: [1] | [2] | [3] | [4] | [5] | [6] | [7] | [10] | [8]
active: [9] 63.4 µM

O=[As]c1ccccc1 (centres undefined)
active: [5] 0.53 µM | [6] 0.236 µM | [7] 0.32 µM | [8] 0.325 µM | [9] 0.282 µM
inactive: [2] | [3] | [4] | [10]

O=C(Cl)Oc1ccccc1
inactive: [1] | [2] | [3] | [4] | [5] | [6] | [7] | [10] | [8] | [9]

CC(C)CCCCCCCOP(OCCCCCCCC(C)C)Oc1ccccc1
inactive: [1] | [2] | [3] | [4] | [5] | [7] | [10] | [8]
active: [6] 100 µM | [9] 3.39 µM

CCCCOP(OCCCC)OCCCC
inactive: [1] | [2] | [3] | [4] | [5] | [6] | [7] | [10] | [8]

O=P(Cl)(Oc1ccccc1)Oc1ccccc1
inactive: [1] | [2] | [3] | [4] | [5] | [6] | [7] | [10] | [8]
active: [9] 41.5 µM

CCCCO[P+](=O)OCCCC
inactive: [1] | [2] | [3] | [4] | [5] | [6] | [7] | [10] | [8] | [9]

O=[N+]([O-])c1ccc([N+](=O)[O-])cc1
inactive: [2] | [3] | [4] | [5] | [10] | [9]
active: [1] 23.7 µM | [6] 61.9 µM | [7] 66.8 µM | [8] 100 µM

CCCCC(CC)CO[P+](=O)OCC(CC)CCCC (centres undefined)
inactive: [1] | [2] | [3] | [4] | [5] | [6] | [7] | [10] | [8]
active: [9] 18.5 µM

N#CSc1ccc([N+](=O)[O-])cc1[N+](=O)[O-]
inactive: [1] | [2] | [3] | [4] | [5] | [7] | [10] | [9]

CC(C)OP(=S)(OC(C)C)SCCNS(=O)(=O)c1ccccc1
active: [10] 514 nM and 365 nM | [9] 105 nM and 103 nM and 72.5 nM
inactive: [1] | [2] | [3] | [4] | [5] | [6] | [7] | [10] | [8]

CN(C(=O)Cc1cccc2occc12)[C@H]1CC[C@@]2(CCCO2)C[C@@H]1N1CCCC1
active: [9] 16.8 µM
inactive: [1] | [2] | [3] | [4] | [5] | [6] | [7] | [10] | [8]

O=[P+](Oc1ccccc1)Oc1ccccc1
inactive: [1] | [2] | [3] | [4] | [5] | [6] | [7] | [10] | [8] | [9]

ClP(Cl)c1ccccc1
inactive: [1] | [2] | [3] | [4] | [5] | [6] | [7] | [8] | [9]

O=C1C2CC=CCC2C(=O)N1SC(Cl)(Cl)C(Cl)Cl (centres undefined)
inactive: [1] | [2] | [3] | [4] | [5] | [6] | [7] | [10] | [8]
active: [9] 0.365 µM

Cc1cc([N+](=O)[O-])cc([N+](=O)[O-])c1O
inactive: [1] | [2] | [3] | [5] | [6] | [7] | [10] | [8] | [9]
